Experimental findings from US8563731B2, “Mesylate salt of 5-(2-{[6-(2,2-difluoro-2-phenylethoxy)hexyl]jamino}-1-hydroxyethyl)-8-hydroxyquinolin-2(1H)-one as agonist of the β2 adrenergic receptor” (Almirall, S.A., priority 2008, dated 2013) are described below.

This data set in a line: Water-Solubility Test. As to conditions: in water at room temperature.

With Formoterol Fumarate, the “Water Solubility @ 25° C. (mg/ml as Base)” value was 1.81 mg/ml as Base.
